The pKi is −log10 of the Ki, conventionally taken in molar units. Read a high pKi as a small Ki.

Here are results for one compound from ChEMBL document CHEMBL1938349 (Bioorg Med Chem, 2012).

pKi: −log10 of the molar value. Some results are limits rather than exact numbers.

This experiment has as its target T1, 5-hydroxytryptamine receptor 2C (Rattus norvegicus, UniProt P08909).
T1 sequence (P08909 whole entry): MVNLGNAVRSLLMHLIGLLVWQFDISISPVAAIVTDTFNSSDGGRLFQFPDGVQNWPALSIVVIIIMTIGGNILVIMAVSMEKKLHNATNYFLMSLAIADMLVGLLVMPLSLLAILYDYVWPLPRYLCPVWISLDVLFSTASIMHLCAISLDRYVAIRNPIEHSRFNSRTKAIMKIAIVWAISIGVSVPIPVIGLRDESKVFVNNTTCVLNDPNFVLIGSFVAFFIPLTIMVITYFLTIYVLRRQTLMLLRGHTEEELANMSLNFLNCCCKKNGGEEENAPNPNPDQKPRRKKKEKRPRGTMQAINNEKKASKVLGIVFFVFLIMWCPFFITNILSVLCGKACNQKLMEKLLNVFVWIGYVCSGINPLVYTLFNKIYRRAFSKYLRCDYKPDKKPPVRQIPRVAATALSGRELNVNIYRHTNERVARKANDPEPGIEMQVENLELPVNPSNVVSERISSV
Kind of experiment: Displacement of [3H]mesulergine from rat 5HT2C receptor by liquid scintillation counting. For orientation: Loss of bound radioactivity is the signal in a displacement assay; it reports binding, not function.

Consider `OC1(c2ccc(Cl)cc2)CCN(CCCSc2ccc(F)cc2)CC1`, for which the pKi was below 5.00.
